eIF4H FP inh: inhibitors of RNA binding by human eIF4H; Q15056; eIF4H fluorescence polarization binding assay; inhibition, % at 35 µM; hit rate 0.94% among 290,000;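 note: calls also rest on retests at 20 µM and on dose response follow-up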
UUG fidelity: alters start codon recognition fidelity in yeast; AID 602363; activity score, % at 18.7 µM; 350,000 tested, 0.13% active; S. cerevisiae UUG-firefly luciferase reporter, luminescence/redox ratio;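 active means replicate mean at a twofold rise or more, about +100% in these data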;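 further: firefly luciferase made from a UUG start codon reports start codon fidelity; reporter light over untreated wells divided by growth signal over untreated wells; some hits fall short of that in this replicate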
PABP FP inh: PABP-poly(A) binding inhibition. PABP-poly(A) RNA binding, fluorescence polarization. hit rate 1% among 290,000. P11940. calls only at 35 µM;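 note: calls also rest on retests at 20 µM and on dose response follow-up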
Pemphigus Ab inh: inhibitors of pemphigus antibody binding to human desmoglein-3. P32926. binding (percent of control), % at 10 µM. DSG3-coupled beads, scFv-anti-DSG3-GFP binding, flow cytometry; stronger effect = lower value. hit rate 0.48% among 310,000;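 active = binding more than 3 SD below its plate's average and above zero; inconclusive = below that plate limit but binding exactly zero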
PABP1 MLLE inh: blocks PAM2 peptide binding to the PABP1 MLLE domain; P11940; GST-MLLE / FITC-PAM2 fluorescence polarization; inhibition, % at 20 µM; hit rate 0.36% among 360,000; in the data active = inhibition above about 35%, passing the limit was not always enough
Large screens that a line does not name were inactive. Rows were chosen to be rich in hits. Some 1.5% of all compounds tested hit in one or more screens of this group. Unless noted, the rule behind the calls is not given here.

COc1ccc(N2C(=O)CC(SCCc3nc4ccccc4[nH]3)C2=O)cc1 (configuration not stated)	PABP1 MLLE inh 40.4
Cc1oc(/N=C/c2ccc(Cl)cc2)c(C#N)c1C	eIF4H FP inh 53.2, PABP FP inh active
Cc1oc(/N=C/c2ccccc2O)c(C#N)c1C	eIF4H FP inh 79.4, PABP FP inh active
Cc1oc(/N=C/c2ccc(Cl)cc2Cl)c(C#N)c1C	none
C[C@H]1CN([C@@H](C)CO)C(=O)c2cc(NC(=O)Nc3ccc4c(c3)OCO4)ccc2O[C@H]1CN(C)C(=O)NC1CCCCC1	none (no result: eIF4H FP inh, PABP FP inh, Pemphigus Ab inh, PABP1 MLLE inh)
CC(C)NC(=O)C1CCN(Cc2cccc(Oc3ccccc3)c2)CC1	eIF4H FP inh 90.3, PABP FP inh active
NC(=O)C1CCN(Cc2cccc(OCc3ccccc3)c2)CC1	none
CC(C)NC(=O)C1CCN(Cc2cccc(OCc3ccccc3)c2)CC1	Pemphigus Ab inh 82.9 (no result: eIF4H FP inh, PABP FP inh)
COc1cccc(CN2CCC(C(=O)Nc3ccc(Oc4cccnc4)cc3)CC2)c1	none
N#CC1(C#N)COC23CCCCC2C1(C#N)C(=N)O3 (configuration not stated)	PABP FP inh active (no result: Pemphigus Ab inh)
CCCC1OC23CCCCC2C(C#N)(C(=N)O3)C1(C#N)C#N (configuration not stated)	eIF4H FP inh inconclusive, PABP FP inh inconclusive, PABP1 MLLE inh 57.9
N#CC12COC3(CCCCC3C1(C#N)C#N)OC2=N (configuration not stated)	eIF4H FP inh inconclusive, PABP FP inh inconclusive, PABP1 MLLE inh 49.1 (no result: UUG fidelity)
CCCN(C)C[C@H]1Oc2cc(C#Cc3ccccn3)ccc2S(=O)(=O)N([C@H](C)CO)C[C@H]1C	none (no result: eIF4H FP inh, PABP FP inh, Pemphigus Ab inh, PABP1 MLLE inh)
COc1cc(NC(=S)NCCN2CCOCC2)cc(OC)c1OC	none (no result: UUG fidelity)
COc1ccc(C(C)(C)C)cc1NC(=S)NCCN1CCOCC1	PABP FP inh active
C[C@@H]1CN([C@@H](C)CO)C(=O)Cc2cc(NC(=O)NC3CCCCC3)ccc2O[C@@H]1CN(C)C(=O)Nc1ccccc1	none (no result: eIF4H FP inh, PABP FP inh, Pemphigus Ab inh, PABP1 MLLE inh)
Cc1ccccc1NC(=O)COc1ccccc1C	none
Cc1ccccc1OCC(=O)Nc1ccccc1-c1ccccc1	Pemphigus Ab inh 8.5 (no result: eIF4H FP inh, UUG fidelity, PABP FP inh)
FC(F)(F)c1cccc(NC(=S)NNC(=S)NCc2ccccc2)c1	PABP1 MLLE inh 40.8
FC(F)(F)c1cccc(NC(=S)Nc2cccc(NC(=S)Nc3cccc(C(F)(F)F)c3)n2)c1	PABP1 MLLE inh 47.1 (no result: Pemphigus Ab inh)
Cc1cccc(NC(=S)Nc2cccc(C(F)(F)F)c2)n1	none
O=C(/C=C/c1ccc([N+](=O)[O-])cc1)c1ccco1	none
O=C(/C=C/c1ccc(-c2ccccc2[N+](=O)[O-])o1)c1ccco1	PABP1 MLLE inh 52.0 (no result: UUG fidelity)
Nc1cc(Nc2ccc(Br)cc2)nc(N)n1	PABP1 MLLE inh 42.8 (no result: UUG fidelity)
C[n+]1cc(-c2ccccc2)n2c1CCCCC2	PABP FP inh active (no result: UUG fidelity)
O=C1C(Cl)=C(N2CCCCC2)C(=O)C(Cl)=C1c1cnc(N2CCCCC2)s1	eIF4H FP inh inconclusive, PABP1 MLLE inh 48.4
O=C1C(Cl)=C(N2CCCCCC2)C(=O)N1c1ccc(Cl)cc1	none
CN(C)c1ncc(C2=C(Cl)C(=O)C(N3CCCC3)=C(Cl)C2=O)s1	PABP1 MLLE inh 41.1 (no result: eIF4H FP inh, PABP FP inh)
CN1C(=O)c2cc(NC(=O)c3cscn3)ccc2OC[C@@H]2O[C@@H](CC(=O)N3CCOCC3)CC[C@H]21	none (no result: eIF4H FP inh, PABP FP inh, Pemphigus Ab inh, PABP1 MLLE inh)
Cc1noc(C)c1S(=O)(=O)N(C)C[C@@H]1OCCCC[C@H](C)Oc2ccc(NC(=O)C3CCCCC3)cc2C(=O)N([C@H](C)CO)C[C@@H]1C	none (no result: eIF4H FP inh, PABP FP inh, Pemphigus Ab inh, PABP1 MLLE inh)
COc1ccc(C(=O)NC(=S)Nc2cccc(NC(=O)c3ccco3)c2)cc1[N+](=O)[O-]	PABP1 MLLE inh 42.0
CC[n+]1cc(-c2ccccc2)nc(N2CCOCC2)n1	PABP FP inh active
NC(=O)c1cc(-c2ccccc2)nc(N2CCOCC2)n1	none
CC(=O)c1c(Cl)nc2cccc3c2c1-c1ccccc1C3=O	PABP1 MLLE inh 50.0
O=C(Cc1ccccn1)NCC[C@H]1CC[C@@H](NC(=O)c2ccccc2F)[C@H](CO)O1	none (no result: eIF4H FP inh, PABP FP inh, Pemphigus Ab inh, PABP1 MLLE inh)
COc1cc(C=Nc2ccccc2C(=O)Nc2ccccc2)cc(OC)c1OC	eIF4H FP inh 3.3, PABP FP inh active (no result: UUG fidelity, Pemphigus Ab inh)
COc1cc(NC(=O)c2ccccc2-c2ccccc2)cc(OC)c1OC	none (no result: UUG fidelity, Pemphigus Ab inh, PABP1 MLLE inh)
O=C(CCn1c(=S)oc2ccccc21)Nc1ccc(F)cc1	eIF4H FP inh 8.9, PABP FP inh active (no result: UUG fidelity)
Cc1ccc(NC(=O)CCn2c(=S)oc3ccccc32)cc1	none (no result: UUG fidelity)
Cc1noc(C)c1NC(=O)Nc1ccc2c(c1)CC(=O)N([C@H](C)CO)C[C@@H](C)[C@H](CN(C)C(=O)Nc1ccc(C(F)(F)F)cc1)O2	none (no result: eIF4H FP inh, PABP FP inh, Pemphigus Ab inh, PABP1 MLLE inh)
NC(=O)/C(=C/c1ccco1)NC(=O)c1ccc(Br)o1	none (no result: eIF4H FP inh, PABP FP inh)
O=C(NCCCO)/C(=C/c1ccco1)NC(=O)c1ccc(Br)o1	eIF4H FP inh 57.7 (no result: UUG fidelity)
C=CCNC(=S)NS(=O)(=O)c1cccs1	PABP1 MLLE inh 44.3
Cn1cnnc1SCc1cccc(Br)c1	Pemphigus Ab inh 41.1
Cc1nc(N2CCN(c3ccccc3O)CC2)c2c(-c3ccccc3)csc2n1	eIF4H FP inh 100.4, PABP FP inh active
Fc1ccc(Nc2nc(-c3ccncc3)nc3ccccc23)cc1	Pemphigus Ab inh 85.5 (no result: UUG fidelity)
Cc1ccc2c(c1)sc[n+]2Cc1ccccc1	PABP1 MLLE inh 38.0
Cc1ccc(-c2cc[n+](Cc3ccccc3)cc2)cc1	none (no result: UUG fidelity)
COc1ccc(CN(C)C[C@@H]2OCCCC[C@@H](C)Oc3ccc(NC(=O)Nc4ccccc4)cc3C(=O)N([C@@H](C)CO)C[C@@H]2C)cc1	none (no result: eIF4H FP inh, PABP FP inh, Pemphigus Ab inh, PABP1 MLLE inh)
CCCNC(=O)C[C@H]1CC[C@H]2[C@@H](COC[C@@H](O)CN2C(=O)C2CCOCC2)O1	none (no result: eIF4H FP inh, PABP FP inh, Pemphigus Ab inh, PABP1 MLLE inh)
COc1ccc(C(=O)CN2CCN(S(=O)(=O)c3cccc([N+](=O)[O-])c3)CC2)cc1OC	PABP1 MLLE inh 39.2
COc1cccc(C(=O)CN2CCN(S(=O)(=O)c3cccc([N+](=O)[O-])c3)CC2)c1	none (no result: UUG fidelity)
O=c1cc(-c2ccc(O)c(O)c2)oc2cc(O[C@@H]3O[C@H](CO)[C@@H](O)[C@H](O)[C@H]3O)cc(O)c12	none (no result: eIF4H FP inh, PABP FP inh)
O=c1cc(-c2ccc(O)cc2)oc2cc(O)c(C3OC(CO)C(O)C(O)C3O)c(O)c12 (configuration not stated)	eIF4H FP inh 66.9, PABP FP inh active
COc1ccc(NC(=O)CSc2nc(N3CCCCC3)nc(N3CCCCC3)n2)cc1	Pemphigus Ab inh 88.0
COc1ccc(NC(=O)CSc2nc3ccccc3nc2N2CCCCC2)cc1	none
O=C(Oc1ccc2c(c1)OCO2)c1cc2c(s1)CCC2	eIF4H FP inh 98.5, PABP FP inh active
O=C(c1cc2c(s1)CCCC2)N1CCN(Cc2ccc3c(c2)OCO3)CC1	none (no result: UUG fidelity)
O=C(C[C@@H]1C[C@H]2c3cc(NC(=O)CC4CC4)ccc3O[C@H]2[C@@H](CO)O1)NCc1ccncc1	none (no result: eIF4H FP inh, PABP FP inh, Pemphigus Ab inh, PABP1 MLLE inh)
COc1ccccc1NC(=O)NCc1nc(-c2ccc(C(F)(F)F)cc2)no1	Pemphigus Ab inh 74.1
O=C(NCc1nc(-c2ccccc2)no1)Nc1ccc(F)cc1	none (no result: UUG fidelity)
O=C(O)[C@@H]1[C@@H](CO)[C@@H]2Cn3c(ccc(-c4ccccc4)c3=O)[C@@H]2N1CCc1ccccc1	none (no result: eIF4H FP inh, PABP FP inh, Pemphigus Ab inh, PABP1 MLLE inh)
COc1ccc(CNC(=O)C2CCN(c3nnc(N4CCCC4=O)s3)CC2)cc1	eIF4H FP inh 90.4, PABP FP inh active

Source: PubChem BioAssay (several laboratories)
